Laboratory results: patent US20030175822A1

The chains behind the UniProt entries cited, without tags or fusion partners.
UniProt P35372, whole entry: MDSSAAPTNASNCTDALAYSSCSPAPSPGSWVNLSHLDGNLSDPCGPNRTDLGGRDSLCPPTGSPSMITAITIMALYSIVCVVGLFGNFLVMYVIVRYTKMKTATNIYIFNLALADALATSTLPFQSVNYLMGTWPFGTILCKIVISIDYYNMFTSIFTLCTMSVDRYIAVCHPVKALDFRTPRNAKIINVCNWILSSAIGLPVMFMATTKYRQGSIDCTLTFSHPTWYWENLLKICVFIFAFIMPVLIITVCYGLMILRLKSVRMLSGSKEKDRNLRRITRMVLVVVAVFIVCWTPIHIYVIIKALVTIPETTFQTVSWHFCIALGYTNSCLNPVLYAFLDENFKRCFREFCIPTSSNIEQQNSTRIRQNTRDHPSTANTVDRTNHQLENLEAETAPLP

Assays:
[1] = molecular target: mu3 opiate receptor (human) (UniProt P35372); assay: displacement of [3H]-dihydromorphine, membrane suspension of normal human lung
[2] = molecular target: mu3 opiate receptor (human) (UniProt P35372); assay: displacement of [3H]-dihydromorphine, membrane suspension of human granulocytes
[3] = molecular target: mu3 opiate receptor (human) (UniProt P35372); assay: displacement of [3H]-dihydromorphine, membrane suspension of human lung non-small cell carcinoma

pIC50 [1]: < 6.00
pIC50 [2]: < 6.00
pIC50 [3]: < 6.00
Substance: (Tyr-D-Ala^2, Gly-N-Me-Phe^4, Gly(ol)^5)-enkephalin (peptide)

pIC50: −log10 of the molar value.
